# Assay results published in patent publication US20020160008A1, “TREATMENT OF DIABETES” (priority 1994, published 2002).
# Details: 50 μg GLIP subcutaneously with 5 units insulin; radioimmunoassay; FIG. 6 Panel E
substance,measurement,value
Glucagon-like peptide 1(7-36)amide [GLIP],time for GLIP to be cleared from the blood,about two
